{
  "source": "patent US5705687A",
  "about": "“Neurotropic drug and method for preparation of same” (priority 1993, dated 1998)",
  "test_system": "mice",
  "test": "Soporific action of barbital sodium",
  "key": {"[1]": {"settings": "25 mg/kg i.p. + barbital sodium 250 mg/kg, P < 0.001"}, "[2]": {"settings": "100 mg/kg i.p. + barbital sodium 250 mg/kg, P < 0.001"}},
  "note": "Where a name gives a salt, the structure may show the parent alone.",
  "data": [
    {"smiles": "CC(C)(CO)C(=O)C(=O)NCCCC(=O)O", "note": "[KPA-Ca, calcium salt of ketopantoyl aminobutyrate]", "values": [
      {"measurement": "Duration of sleep", "setting": "1 mg/kg i.p. + barbital sodium 250 mg/kg", "result": "159.1 ± 12.6", "unit": "min"},
      {"measurement": "Lateral position", "setting": "1 mg/kg i.p. + barbital sodium 250 mg/kg, P < 0.001", "result": "26.5 ± 1.9", "unit": "min"},
      {"measurement": "Duration of sleep", "setting": "10 mg/kg i.p. + barbital sodium 250 mg/kg", "result": "195.4 ± 12.1", "unit": "min"},
      {"measurement": "Lateral position", "setting": "10 mg/kg i.p. + barbital sodium 250 mg/kg, P < 0.001", "result": "23.4 ± 1.5", "unit": "min"},
      {"measurement": "Duration of sleep", "setting": "[1]", "result": "121.2 ± 12", "unit": "min"},
      {"measurement": "Lateral position", "setting": "[1]", "result": "21.4 ± 0.6", "unit": "min"},
      {"measurement": "Duration of sleep", "setting": "50 mg/kg i.p. + barbital sodium 250 mg/kg, P < 0.001", "result": "154.7 ± 10.3", "unit": "min"},
      {"measurement": "Lateral position", "setting": "50 mg/kg i.p. + barbital sodium 250 mg/kg, P < 0.01", "result": "23.7 ± 1.9", "unit": "min"},
      {"measurement": "Duration of sleep", "setting": "[2]", "result": "181.8 ± 5.4", "unit": "min"},
      {"measurement": "Lateral position", "setting": "[2]", "result": "23.0 ± 0.8", "unit": "min"}
    ]}
  ]
}
